Earlier results on one substance are cited in EP4640072A1, “FLEECE MATERIALS TREATED WITH AN ION-PAIRING AGENT AND ORAL PRODUCTS COMPRISING FLEECE MATERIALS TREATED WITH AN ION-PAIRING AGENT” (Nicoventures Trading Limited, priority 2024, dated 2025).

The conditions of the data set: lipophilicity of the organic acid; values obtained from PubChem or calculated.

On to Chicoric acid, for which the “log(P)*” value is on record as 2.0.
